Measurements from patent publication US7527975B2, “Determination of high lipophilicity values” (Hoffmann-La Roche Inc., priority 2005, dated 2009).

Assay: DIFI-log D: octanol-impregnated PVDF membrane (DIFI-tubes) / buffer distribution, UV readout
Settings: 1 μl octanol on 0,45 μm PVDF membrane / 1600 μl 50 mM TAPSO pH 7.4, shaken 2 h, UV 250-450 nm, three determinations

## Imipramine
  DIFI-log D: 2.66
